Source: PubChem BioAssay AID588354 (The Scripps Research Institute Molecular Screening Center, 2011)
This is a selection; strong and weak results do not stand in their true shares. The source made the active and inactive calls.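 Rule for the calls: active = inhibition above the campaign mean plus 3 SD, with each screening campaign given its own cutoff (cut at about 60% in these data); inactive = the rest.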

Protein sequences, listed by entry. Tags and fused reporters are not part of them. Lines headed by an entry give the natural chain unless they say otherwise; changes in a name come on top.
UniProt Q15788: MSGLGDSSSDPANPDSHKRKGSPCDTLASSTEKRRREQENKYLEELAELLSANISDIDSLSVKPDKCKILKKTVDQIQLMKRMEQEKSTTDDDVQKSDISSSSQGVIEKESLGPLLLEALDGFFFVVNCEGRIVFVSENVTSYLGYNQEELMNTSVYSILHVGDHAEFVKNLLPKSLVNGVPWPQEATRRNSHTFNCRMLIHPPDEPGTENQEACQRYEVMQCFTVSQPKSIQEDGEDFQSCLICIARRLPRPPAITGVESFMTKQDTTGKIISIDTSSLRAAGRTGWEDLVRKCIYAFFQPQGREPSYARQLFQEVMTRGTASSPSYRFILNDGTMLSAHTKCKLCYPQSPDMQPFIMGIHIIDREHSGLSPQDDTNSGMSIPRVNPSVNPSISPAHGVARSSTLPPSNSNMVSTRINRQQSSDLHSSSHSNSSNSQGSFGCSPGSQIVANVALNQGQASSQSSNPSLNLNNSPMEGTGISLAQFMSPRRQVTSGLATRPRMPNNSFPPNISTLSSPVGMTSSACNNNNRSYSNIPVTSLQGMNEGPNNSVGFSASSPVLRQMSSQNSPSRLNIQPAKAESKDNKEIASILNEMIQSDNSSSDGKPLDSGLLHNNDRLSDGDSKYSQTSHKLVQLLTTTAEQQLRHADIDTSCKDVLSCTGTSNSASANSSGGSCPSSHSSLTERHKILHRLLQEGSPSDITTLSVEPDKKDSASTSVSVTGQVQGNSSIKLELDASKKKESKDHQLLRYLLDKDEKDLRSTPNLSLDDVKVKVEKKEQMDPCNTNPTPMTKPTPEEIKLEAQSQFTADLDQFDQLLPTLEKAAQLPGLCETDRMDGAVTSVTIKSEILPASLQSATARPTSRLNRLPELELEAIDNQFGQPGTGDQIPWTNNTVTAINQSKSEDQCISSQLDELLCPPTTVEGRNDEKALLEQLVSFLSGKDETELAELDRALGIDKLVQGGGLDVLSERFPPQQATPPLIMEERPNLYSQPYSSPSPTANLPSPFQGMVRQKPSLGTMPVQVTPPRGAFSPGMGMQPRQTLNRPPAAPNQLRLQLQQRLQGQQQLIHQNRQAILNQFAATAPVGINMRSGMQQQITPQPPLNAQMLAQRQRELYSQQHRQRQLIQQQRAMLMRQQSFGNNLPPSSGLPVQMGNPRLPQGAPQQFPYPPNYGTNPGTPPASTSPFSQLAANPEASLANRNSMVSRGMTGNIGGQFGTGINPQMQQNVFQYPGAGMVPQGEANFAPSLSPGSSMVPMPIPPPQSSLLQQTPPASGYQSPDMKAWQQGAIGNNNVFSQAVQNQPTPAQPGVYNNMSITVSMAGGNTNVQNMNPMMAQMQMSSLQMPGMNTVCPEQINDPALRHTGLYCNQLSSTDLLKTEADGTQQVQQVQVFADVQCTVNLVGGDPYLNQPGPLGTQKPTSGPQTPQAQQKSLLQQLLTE

target: Nuclear receptor coactivator 1 (Homo sapiens) (UniProt Q15788); assay: NCOA1 GAL4-fusion reporter inhibition – cell-based, luminescence, primary screen (AID 588354); details: HEK293 GAL4-SRC1 luciferase reporter, at 3.6 µM, hits give high values;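 note: 0% = DMSO treated cells and 100% = gossypol at 36 µM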

SMILES	inhibition
CCC(C)N(CC(C)C)C(=S)SC(NC(C)=O)C(Cl)(Cl)Cl (stereo unspecified)	inactive: 0.04%
CCOC(=O)c1ccc(NC(=O)C(C)(CCl)SC)cc1 (stereo unspecified)	inactive: -56.4%
CSc1ccc(Nc2c([N+](=O)[O-])cc([N+](=O)[O-])cc2[N+](=O)[O-])cc1	inactive: -31.5%
O=C(OC1CN2CCC1CC2)c1cccc([N+](=O)[O-])c1 (stereo unspecified)	inactive: -6.44%
O=C(Nc1ccncc1[N+](=O)[O-])c1ccc([N+](=O)[O-])cc1[N+](=O)[O-]	inactive: 10.8%
O=C(COc1ccccc1)OC1CN2CCC1CC2 (stereo unspecified)	inactive: -7.63%
O=C(O)C(=O)c1ccc(N(CCCl)CCCl)cc1	inactive: -6.47%
COC(=O)C1(C)COP(=O)(N2CCCC2)OC1 (stereo unspecified)	inactive: -6.15%
COP1(=S)c2c(C)nn(CCC#N)c2N=C(c2ccc(F)cc2)N1C (stereo unspecified)	inactive: -0.78%
O=[N+]([O-])c1ccc(Nc2ccc(Oc3ccc([N+](=O)[O-])cc3[N+](=O)[O-])cc2)c([N+](=O)[O-])c1	inactive: -11.5%
O=P(Nc1ccccn1)(c1cccc2ccccc12)c1cccc2ccccc12	inactive: -8.54%
Cc1cc(SC(NC=O)C(Cl)(Cl)Cl)ncn1 (stereo unspecified)	inactive: -1.33%
CCOC(=O)Nc1cccc([As](=O)(O)O)c1	inactive: -8.5%
Cc1cc(SC(NC(=O)c2ccccc2)C(Cl)(Cl)Cl)nc(C(C)C)n1 (stereo unspecified)	inactive: -88.2%
CCCCOc1ccc(C(=O)NCC2(N3CCCCC3)CCCCC2)cc1OC	inactive: 5.01%
COP(=O)(OC)N1CC1c1ccccc1 (stereo unspecified)	inactive: -7.24%
CC1CCNP(=O)(N(CCCl)CCCl)O1 (stereo unspecified)	inactive: 0.34%
CCOC(=O)Nc1ccc([As](=O)(O)O)c(O)c1	inactive: -11.8%
O=C(O)C(O)c1ccc(N(CCCl)CCCl)cc1 (stereo unspecified)	inactive: -14.7%
O=[N+]([O-])c1cc([N+](=O)[O-])c(-c2ccn[nH]2)s1	inactive: -5.87%
O=C(OC1CN2CCC1CC2)c1cccc2[nH]cnc12 (stereo unspecified)	inactive: 0.34%
CCN(CC)C(=S)SC(NC=O)C(Cl)(Cl)Cl (stereo unspecified)	inactive: -16.9%
CC(C)NC(=O)NP(=O)(Oc1ccccc1)Oc1ccccc1	inactive: -30.2%
CC(C)c1ccc(OP(=O)(Nc2ccccn2)Oc2ccccc2F)cc1 (stereo unspecified)	inactive: 26.6%
COC(=O)C1(C)COP(=O)(N2CCCCCC2)OC1 (stereo unspecified)	inactive: -4.5%
ClCCSc1nnc(-c2cccnc2)o1	inactive: -25.6%

SMILES	inhibition
Cc1ccc2nc3c(c(C)c2c1)CC(C(Cl)Cl)S3 (stereo unspecified)	inactive: -46.9%
Cc1ccc(OP(=O)(Nc2ccc([N+](=O)[O-])cn2)Oc2ccc(C)cc2)cc1	inactive: -37.9%
COc1cc(C(=O)NCC2(N3CCOCC3)CCCCC2)ccc1OCC(C)C	inactive: 4.22%
O=[N+]([O-])c1ccc(-c2cc([N+](=O)[O-])c(O)c([N+](=O)[O-])c2)cc1	inactive: -6.37%
C[As](=O)(O)c1cccc(C(=O)O)c1	inactive: -24.5%
O=[As](O)(c1ccc(O)cc1)c1ccccc1O	inactive: -9.45%
COc1ccc(N/C(=N/P(=O)(N2CCOCC2)N2CCOCC2)N2CCOCC2)cc1	inactive: 7.3%
O=[N+]([O-])c1cc(Oc2ccc([N+](=O)[O-])cc2C(F)(F)F)cc([N+](=O)[O-])c1	inactive: 8.92%
COc1cc(I)ccc1[As](=O)(O)O	inactive: 7.05%
COc1ccc2nc(NP(=O)(c3ccccc3)c3ccccc3)sc2c1	inactive: -7.28%
O=P1(N(CCCl)CCCl)Nc2ccccc2N1	inactive: -117%
O=P1(N(CCCl)CCCl)OCCCN1CCCl (stereo unspecified)	inactive: -4.39%
Cc1cc(=O)[nH]c(N[N+](=O)[O-])n1	inactive: 10.3%
O=C(OC1CN2CCC1CC2)C12CC3CC(CC(C3)C1)C2 (stereo unspecified)	inactive: 2.78%
Cc1c2c(nc3ccccc13)SC(C(Cl)Cl)C2 (stereo unspecified)	inactive: 11.7%
CCOP(=O)(Nc1cccc2ccccc12)OCC	inactive: 4.61%
COc1cc(C2NCCC3(OCCO3)C2(C)C)cc(OC)c1OC (stereo unspecified)	inactive: 9.2%
CCCOP(=S)(Nc1nc(N)cc(=O)[nH]1)OCCC	inactive: -21.2%
Nc1cccc2c([As](=O)(O)O)cccc12	inactive: -2.57%
Cc1ccc(NCCc2c([N+](=O)[O-])cc([N+](=O)[O-])cc2[N+](=O)[O-])cc1	inactive: -14.6%
O=[As](O)(c1cccc(O)c1)c1cccc(O)c1	inactive: -19.2%
Cc1cccc(OCC(=O)OC2CN3CCC2CC3)c1 (stereo unspecified)	inactive: -3.39%
CS(=O)(=O)c1ccc(Cl)c(NC(=O)COC(=O)C(O)(c2ccccc2)c2ccccc2)c1	inactive: -8.41%
COc1cc(C(=O)NCC2(N3CCOCC3)CCCCC2)cc(Cl)c1OC(C)C	inactive: 0.35%
O=[As](O)(O)c1cccnc1	inactive: -9.27%
O=C(OC1CN2CCC1CC2)c1ccc(Cl)cc1 (stereo unspecified)	inactive: 11.9%

SMILES	inhibition
CN(C(=O)Cc1ccc(Cl)c(Cl)c1)[C@H]1CC[C@@]2(CCCO2)C[C@@H]1N1CCCC1	inactive: -19.7%
CN(C)C(=O)c1cc([N+](=O)[O-])cc2c1-c1c(cc([N+](=O)[O-])cc1[N+](=O)[O-])C2=O	inactive: -4.39%
O=[N+]([O-])c1ccc2c(c1)nnn2O	inactive: -8.06%
CN(C(=O)Cc1ccccc1)[C@@H]1CC[C@]2(CCCO2)C[C@H]1N1CCCC1	inactive: -5.63%
CCOP1(=S)c2c(C)nn(CCC#N)c2N=C(c2ccc(F)cc2)N1C (stereo unspecified)	inactive: -15.2%
N#CCCN(C(=O)COC(=O)C(O)(c1ccccc1)c1ccccc1)c1ccc(F)cc1	inactive: 8.12%
NC(=O)Nc1ccc([As](=O)(O)O)cc1	inactive: -8.14%
Nc1ccccc1[As](=O)(O)c1ccccc1	inactive: 10.9%
O=C(O)COc1ccc([As](=O)(O)O)cc1[N+](=O)[O-]	inactive: 23%
CS(=O)(=O)c1cc([N+](=O)[O-])c2no[n+]([O-])c2c1	inactive: -8.22%
O=P(Nc1nccs1)(c1ccccc1)c1nc2ccccc2s1 (stereo unspecified)	inactive: -22.2%
O=P(Nc1nccs1)(Oc1ccccc1)Oc1ccccc1	inactive: -11.5%
CCOP1(=S)c2c(C)nn(CCC#N)c2N=C(c2ccccc2F)N1C (stereo unspecified)	inactive: 16.3%
O=P1(Nc2ccc(Br)cn2)COc2ccccc2OC1	inactive: -0.75%
NS(=O)(=O)c1cccc(NC(=O)COC(=O)C(O)(c2ccccc2)c2ccccc2)c1	inactive: -8.38%
O=[As](O)(c1cccs1)c1cccs1	inactive: 3.33%
Cc1ccc(OCC(=O)OC2CN3CCC2CC3)cc1 (stereo unspecified)	inactive: -20.2%
Nc1cccc([As](=O)(O)c2ccccc2)c1	inactive: 1.78%
O=P1(Nc2ncccn2)COc2ccccc2OC1	inactive: 8.76%
Cc1ccc(S(=O)(=O)N(CCCN)CCCc2c(C)nc(N)[nH]c2=O)cc1	inactive: -5.89%
CCCC1OP(=O)(Nc2ccccc2)OCC1CC (stereo unspecified)	inactive: 3.97%
O=C(/C=C/c1ccccc1)OC1CN2CCC1CC2 (stereo unspecified)	inactive: 5.8%
CN(C)C1(CNC(=O)c2ccc(S(C)(=O)=O)cc2)CCCCC1	inactive: 4.36%
CC1CCC(C(C)C)C(OP(=O)(Nc2ccccn2)c2ccccc2)C1 (stereo unspecified)	inactive: 24.2%
Cc1ccc(C(=O)OC2CN3CCC2CC3)cc1 (stereo unspecified)	inactive: -9.39%
Cc1nn(-c2ccccc2)c2c1P(=O)(N1CCOCC1)N(C)C(c1ccccc1)=N2 (stereo unspecified)	inactive: 11.9%

SMILES	inhibition
CC1(CBr)Cn2c(nc3ccccc3c2=O)S1 (stereo unspecified)	inactive: -15.5%
CC(C)/C=N\N=C(\N)N[N+](=O)[O-]	inactive: -1.61%
CN(C(=O)Cc1ccc(Cl)c(Cl)c1)[C@@H]1CCCC[C@H]1N1CCCC1	inactive: -7.31%
COc1ccccc1CNC(=O)COC(=O)C(O)(c1ccccc1)c1ccccc1	inactive: -5.84%
CC(C)(C)C(=O)NC(Sc1ncccn1)C(Cl)(Cl)Cl (stereo unspecified)	inactive: -1.39%
O=P1(N(CCCl)CCCl)NCCC(C(F)(F)F)O1 (stereo unspecified)	inactive: -5.14%
Clc1n[nH]nc1-c1nn[nH][15n]1	inactive: -5.89%
CN(CCCl)Cc1cc(Cl)c(NC2=NCCN2)c(Cl)c1	inactive: -0.95%
CCOP(=O)(Nc1ccc(C)cn1)OCC	inactive: 12%
CCOP(=O)(NC(=NC(C)c1ccccc1)NC(C)c1ccccc1)OCC (stereo unspecified)	inactive: 3.39%
O=P1(Nc2ccccn2)COc2ccccc2OC1	inactive: -10.2%
CCC1=CC2Cc3nc4ccc(Cl)cc4c(N)c3C(C1)C2 (stereo unspecified)	inactive: -1.6%
c1nnnn1CCn1cnnn1	inactive: -3.98%
CC(C)C(=O)NC(Sc1ccccc1)C(Cl)(Cl)Cl (stereo unspecified)	inactive: -2.32%
O=P(Nc1nccs1)(c1ccccc1)c1ccccc1	inactive: 9.04%
Nc1ccc([As](=O)(O)c2ccc([N+](=O)[O-])cc2)cc1	inactive: -10.4%
C(Cc1nn[nH]n1)Cc1nn[nH]n1	inactive: -29.1%
O=C(OC1CN2CCC1CC2)c1cccc(Cl)c1 (stereo unspecified)	inactive: 2.61%
O=[N+]([O-])c1ccc(O)c(/C=N/Nc2ccc([N+](=O)[O-])cc2[N+](=O)[O-])c1	inactive: -12.7%
O=[N+]([O-])c1ncn(CCn2cnc([N+](=O)[O-])n2)n1	inactive: -24.2%
CC(=O)NC(SC(=S)N(C)C)C(Cl)(Cl)Cl (stereo unspecified)	inactive: -10.5%
O=[As](O)(c1ccccc1)c1ccc(O)cc1	inactive: -3.04%
C[C@H]1OP(=O)(Oc2ccccc2)[C@H](O)[C@H](O)[C@H]1N=[N+]=[N-] (stereo partly specified)	inactive: -2.07%
